Ab-95 light chain CDR variants: yeast mating affinities

From the AlphaSeq antibody data of Engelhart et al. 2022 (doi:10.1038/s41597-022-01779-4), copy in the FLAb collection.

Antigen: PDVDLGDISGINAS, a 14-residue peptide of the SARS-CoV-2 spike HR2 region.

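Library AAYL52 holds single substitutions and randomly drawn double and triple substitutions in the CDRs. AlphaSeq pools MATa yeast showing the antibodies with MATalpha yeast showing the peptide. After mating in shaken culture at 30 °C for 16 h, diploids were selected and their barcode pairs sequenced. Each replicate has its own calibration line, from reference interactions of the BCL2 family. Each pool was mated in three replicate cultures.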

Ab-95 is the parent antibody, in scFv form: VH, then a (GGGGS)3 linker, then VL. The heavy chain is unchanged in all variants.
VH: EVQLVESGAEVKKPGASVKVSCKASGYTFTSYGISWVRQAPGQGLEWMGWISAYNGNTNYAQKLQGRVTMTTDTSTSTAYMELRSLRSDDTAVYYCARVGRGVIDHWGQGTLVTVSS
VL: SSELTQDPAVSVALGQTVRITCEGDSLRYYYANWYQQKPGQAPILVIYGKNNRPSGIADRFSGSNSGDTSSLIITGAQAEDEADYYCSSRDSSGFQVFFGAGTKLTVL

Each variant is given by its three light chain CDRs, as the data file delimits them; those of the parent are EGDSLRYYYAN, GKNNRPS, SSRDSSGFQVF. Every variant below is changed at D25 of the VL (sequential numbering). Affinities are written as log10 Kd with Kd in nM; a lower number is a better binder. "nd" means that the variant was in the library but no mating with the target was seen in that replicate; the authors take this as a sign of poor binding, and no number exists. Empty control strains, which show no peptide, gave a signal in 28% of pairings with library AAYL52; the median was 3.91 and 95% of these signals were weaker than 2.90. No background was subtracted. Also given: how often the same scFv was detected with the empty control strains.

For EGHSLRYTYAN | GKNNRPS | QSRDSSGFQVF, the assay gave 2.10, 1.84, 1.67 (controls 3 of 9). The variant EGLSLRYGYAN | GKNNRPS | SSRDMSGFQVF gave 1.06, 0.98, 0.42 (controls 1 of 9). For ETWSLRYYYAN | GKNNRPS | SSRDSSCFQVF, the assay gave 4.94, nd, 3.30 (controls 3 of 9). With ERWSLRYYYAN | GKNNRPS | SSRDSSGFLVF the result was 4.50, 3.52, 4.44 (controls 5 of 9). For EGTSLREYYAN | GKNNRPS | SRRDSSGFQVF, the assay gave 2.26, 3.01, 2.28 (controls 5 of 9). The variant EGASLRYYYAN | GRNNKPS | SSRDSSGFQVF showed 3.19, 3.37, 2.45 (controls 0 of 9). The variant EGGSLRYYYAQ | GKNNRPS | SSRDSSGVQVF gave nd, nd, nd (controls 2 of 9). With EGVSLRYYYAN | GKDNRPS | SSRDSSGFKVF the result was 3.80, 3.19, 3.81 (controls 1 of 9). The variant EGMILRYYYLN | GKNNRPS | SSRDSSGFQVF showed nd, nd, nd (controls 0 of 9).

The variant EGVSLRYYYAN | GKNNRPS | SIRDSKGFQVF showed nd, nd, nd (controls 1 of 9). The variant EGLSLRYYYAN | FKNNRDS | SSRDSSGFQVF showed nd, nd, nd (controls 0 of 9). With EGNSLRYYYFN | GKNNRPS | SSRDSSGFQVF the result was nd, nd, nd (controls 3 of 9). The variant EGQSLRYYYAN | GKNNRPS | SSRWSSGAQVF gave 2.69, 2.68, 2.11 (controls 5 of 9). The variant WGGSLRYYYAN | GKNARPS | SSRDSSGFQVF gave nd, 2.35, 3.86 (controls 1 of 9). For EGHSLRYYYAN | GKNNRPS | SSRDSSAFQVF, the assay gave 3.36, 2.98, 4.18 (controls 7 of 9). The variant EGQVLRYYYAN | GKNNRPS | SSRDSWGFQVF showed nd, 4.66, nd (controls 1 of 9). With EPNSLRYYYAN | GKNNRPS | SSRDSSGMQVF the result was nd, nd, 4.35 (controls 3 of 9). For CGISLRYYYAN | GSNNRPS | SSRDSSGFQVF, the assay gave 3.43, nd, 3.35 (controls 5 of 9).

The variant EGTSLRYYYAN | GKPNQPS | SSRDSSGFQVF gave 4.19, nd, nd (controls 4 of 9). The variant EGRSLRYYYAN | GKNNLPS | SSADSSGFQVF gave 3.14, 3.95, nd (controls 3 of 9). The variant EGSSLRYYYAN | GKNNRPS | SSRHSSHFQVF showed 2.99, 3.51, 4.44 (controls 1 of 9). For CGESLRYYYAN | GKNNRPS | SSRDSSKFQVF, the assay gave 4.02, 4.86, nd (controls 3 of 9). For EGTSLRYYYAN | GKNNRPS | SSRDSSGAQVF, the assay gave 2.71, 2.79, 2.92 (controls 1 of 9). The variant EGNSLRYYYTN | GKNNRPM | SSRDSSGFQVF showed 3.05, 2.58, 2.46 (controls 4 of 9). For EGGSLRYYYAN | GKNNRPS | SSRWSSGFQVK, the assay gave nd, nd, nd (controls 2 of 9). The variant EGWSLRYYYAN | GKNNRPS | SSRDSNGFQVP showed 4.42, 3.35, nd (controls 3 of 9). The variant EGWSLRKYYAQ | GKNNRPS | SSRDSSGFQVF gave nd, nd, nd (controls 5 of 9).

With EQSSLRYYYAN | GKNNRPS | SSRDSSGFQVH the result was nd, nd, nd (controls 3 of 9). For EGYSLRYYYAN | GKNNRPS | HSRDSSLFQVF, the assay gave 2.95, 2.55, 2.70 (controls 1 of 9). The variant EGVSLRDYYAN | AKNNRPS | SSRDSSGFQVF gave 2.85, 3.11, 2.86 (controls 0 of 9). The variant EGSSLRYYYAN | GKNNRMS | SSRDSSGFQHF showed 3.74, 2.92, 3.44 (controls 3 of 9). The variant EGQSLRYYYAN | GKANRPS | SSRDSSGFLVF gave 2.56, 2.95, 2.91 (controls 3 of 9).

Top 4 of the variants detected in all replicates, tightest first:

CDR-L1,CDR-L2,CDR-L3,"replicates, log10 nM",control signals
EGLSLRYGYAN,GKNNRPS,SSRDMSGFQVF,"1.06, 0.98, 0.42",1 of 9
EGHSLRYTYAN,GKNNRPS,QSRDSSGFQVF,"2.10, 1.84, 1.67",3 of 9
EGQSLRYYYAN,GKNNRPS,SSRWSSGAQVF,"2.69, 2.68, 2.11",5 of 9
EGTSLREYYAN,GKNNRPS,SRRDSSGFQVF,"2.26, 3.01, 2.28",5 of 9